Experimental data from ChEMBL document CHEMBL5126517, “Structure-Activity Relationship in the Leucettine Family of Kinase Inhibitors” (J Med Chem, 2022).

Amino acid sequences for entries named in this document (tags omitted). A change or cut given only in a name is not applied to a line headed by its entry.
UniProt O35493: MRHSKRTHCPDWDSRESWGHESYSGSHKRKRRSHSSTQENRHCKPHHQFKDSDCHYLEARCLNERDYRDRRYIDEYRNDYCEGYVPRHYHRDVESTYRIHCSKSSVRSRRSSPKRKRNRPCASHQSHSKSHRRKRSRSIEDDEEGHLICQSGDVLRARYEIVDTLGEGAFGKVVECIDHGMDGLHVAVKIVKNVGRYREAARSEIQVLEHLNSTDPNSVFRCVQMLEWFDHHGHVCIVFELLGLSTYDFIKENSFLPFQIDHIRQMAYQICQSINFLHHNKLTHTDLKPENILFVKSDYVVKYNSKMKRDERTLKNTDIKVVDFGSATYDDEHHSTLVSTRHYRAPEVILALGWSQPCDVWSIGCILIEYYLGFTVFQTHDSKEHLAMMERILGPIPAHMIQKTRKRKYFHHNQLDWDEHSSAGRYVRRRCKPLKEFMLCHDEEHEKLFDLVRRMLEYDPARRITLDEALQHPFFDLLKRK

Target: Dual specificity protein kinase CLK4 (Mus musculus, UniProt O35493)
Experiment: Inhibition of GST-fused mouse recombinant CLK4 expressed in Escherichia coli using GRSRSRSRSRSR peptide as substrate incubated for 30 mins in presence of ATP by scintillation counting method
Details: not given

Compound	IC50 [µM]
[2H]C1([2H])Oc2ccc(/C=C3\N=C(Nc4ccccc4)NC3=O)cc2O1	0.029

Target: T1, Dual specificity tyrosine-phosphorylation-regulated kinase 3 (Homo sapiens, UniProt O43781)
T1 sequence (O43781 whole entry): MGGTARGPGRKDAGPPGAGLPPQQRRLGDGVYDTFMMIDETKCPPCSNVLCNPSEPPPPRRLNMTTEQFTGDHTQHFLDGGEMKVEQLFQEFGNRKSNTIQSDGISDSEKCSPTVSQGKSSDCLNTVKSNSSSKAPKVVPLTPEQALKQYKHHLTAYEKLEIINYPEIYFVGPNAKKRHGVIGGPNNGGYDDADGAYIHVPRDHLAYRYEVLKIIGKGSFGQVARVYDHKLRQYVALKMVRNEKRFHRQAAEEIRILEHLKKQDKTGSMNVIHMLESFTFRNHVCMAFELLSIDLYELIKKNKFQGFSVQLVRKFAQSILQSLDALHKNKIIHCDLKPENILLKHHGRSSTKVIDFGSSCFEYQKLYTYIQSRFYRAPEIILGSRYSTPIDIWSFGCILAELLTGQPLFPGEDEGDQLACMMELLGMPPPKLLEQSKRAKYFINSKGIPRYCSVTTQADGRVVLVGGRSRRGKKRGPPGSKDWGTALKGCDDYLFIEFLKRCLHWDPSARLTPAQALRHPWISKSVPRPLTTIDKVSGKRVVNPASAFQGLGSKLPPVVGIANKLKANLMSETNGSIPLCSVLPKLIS
Experiment: Inhibition of GST-fused human recombinant DYRK3 expressed in Escherichia coli using GRSRSRSRSRSR peptide as substrate incubated for 30 mins in presence of ATP by scintillation counting method
Details: not given

Compound	IC50 [µM]
[2H]C1([2H])Oc2ccc(/C=C3\N=C(Nc4ccccc4)NC3=O)cc2O1	0.4

Test system: HT-22
Experiment: Modulation of CLK1 pre-mRNA splicing in mouse HT-22 cells assessed as inclusion of CLK1 exon 4 by measuring change in threshold cycle at 10 uM measured after 4 hrs by real time PCR analysis
Assay type: cell-based
Details: filed as modulator

Compound	deltaCT
O=C1NC(Nc2ccccc2)=N/C1=C\c1cccc(F)c1	0.08
Cc1ccc(C)c(NC2=N/C(=C\c3ccc4c(c3)OCO4)C(=O)N2)c1	6.1
Cc1ccc(NC2=N/C(=C\c3ccc4c(c3)OCO4)C(=O)N2)cc1C	4.57
COc1cc(/C=C2\N=C(Nc3ccc(N4CCCCC4)cc3)NC2=O)ccc1O	0.33
COc1ccc(/C=C2\N=C(Nc3ccccc3)NC2=O)cc1	0.42
COc1cccc(/C=C2\N=C(Nc3ccccc3)NC2=O)c1	0.41
O=C1NC(Nc2ccccc2)=N/C1=C\c1ccc2c(c1)CCCO2	0.75
O=C1NC(Nc2ccc(N3CCCCC3)cc2)=N/C1=C\c1ccc2c(c1)OCO2	0.28
O=C1NC(Nc2ccccc2)=N/C1=C\c1ccc2c(c1)CCO2	8.2
O=C1NC(Nc2ccc(N3CCNCC3)cc2)=N/C1=C\c1ccc2c(c1)OCO2	0.37
O=C1NC(Nc2ccccc2)=N/C1=C\c1ccc2c(c1)OCCO2	3.14
CCCCOc1ccc(/C=C2\N=C(Nc3ccccc3)NC2=O)cc1OC	0.38
O=C1NC(Nc2ccccn2)=N/C1=C\c1ccc2c(c1)OCO2	6.6
O=C1NC(Nc2ccccc2)=N/C1=C\c1ccc2c(c1)OCCCO2	0.15
COc1cc(/C=C2\N=C(Nc3ccc(N4CCN(C)CC4)cc3)NC2=O)ccc1O	0.52
COc1cc(/C=C2\N=C(Nc3ccccc3)NC2=O)ccc1O	8.64
O=C1NC(Nc2ccccc2)=N/C1=C\c1ccc(F)cc1	0.19

Compound	deltaCT
O=C1NC(Nc2ccc(F)cc2)=N/C1=C\c1ccc2c(c1)OCO2	5.73
COc1cc(/C=C2\N=C(Nc3ccc(N4CCNCC4)cc3)NC2=O)ccc1O	0.72
CN1CCN(c2ccc(NC3=N/C(=C\C4=COc5ccccc5O4)C(=O)N3)cc2)CC1	6.68
CCCCCOc1ccc(NC2=N/C(=C\c3ccc4c(c3)OCO4)C(=O)N2)cc1	0.01
Cc1ccc(NC2=N/C(=C\c3ccc4c(c3)OCO4)C(=O)N2)c(C)c1	1.21
O=C1NC(N2CCN(c3ccc(F)cc3)CC2)=N/C1=C\c1ccc2c(c1)OCCO2	0.12
O=C1NC(Nc2ccc(Oc3ccccc3)cc2)=N/C1=C\c1ccc2c(c1)OCO2	0.18
O=C1NC(Nc2ccc(N3CCNCC3)cc2)=N/C1=C\c1ccc2c(c1)OC=CO2	0.41
CN(C1=N/C(=C\c2ccc3c(c2)OCO3)C(=O)N1)c1ccccc1	1.16
O=C1NC(Nc2cccc(F)c2)=N/C1=C\c1ccc2c(c1)OCO2	8.85
CCCCCCc1ccc(NC2=N/C(=C\c3ccc(O)c(OC)c3)C(=O)N2)cc1	0.82
COc1ccc(/C=C2\N=C(Nc3ccccc3)NC2=O)cc1O	0.1
CCCCCCc1ccc(NC2=N/C(=C\c3ccc4c(c3)OCO4)C(=O)N2)cc1	0.03
O=C1NC(Nc2ccccc2)=N/C1=C\c1ccc(O)c(O)c1	2.69
O=C1NC(Nc2ccc(O)c(F)c2)=N/C1=C\c1ccc2c(c1)OCO2	9.73
O=C1NC(Nc2ccc(-c3ccccc3)cc2)=N/C1=C\c1ccc2c(c1)OCO2	0.3
O=C1NC(Nc2ccccc2)=N/C1=C\c1ccccc1	0.34
